The values below come from EP1903056A2, “HLA-A1, -A2 -A3, -A24, -B7, and -B44 tumor associated antigen peptides and compositions” (priority 2002, dated 2004).

Structures are written as SMILES. pIC50: −log10 of the molar value. Read-outs that look alike come from different tables or passages of the source.

In experiment [1] the target is B*4001(B60) (Homo sapiens, UniProt P01889, A65T/A93T/A95T/D138N/D98Y/E176V/E69K/N87E/Q56L/Q94N/R180L/S121R/S35A/S48T/T167S/V36M/W171L/Y33H/Y91S). In words: B44 supertype peptide binding, B*4001.
The target of experiment [2] is B*4002 (B61) (Homo sapiens, UniProt P01889, A65T/A93T/A95T/D138N/D201E/D98Y/E176V/E204Q/E69K/K202T/N87E/Q56L/Q94N/R180L/S48T/Y33H/Y91S). In words: B44 supertype peptide binding, B*4002.
For experiment [3], the target named is B*4403 (Homo sapiens, UniProt P01889, A223V/A65T/A93T/A95T/D201E/D98Y/E176V/E187L/E204Q/E69K/G107R/H137Y/K202T/L105A/L119I/N104T/N87E/Q56L/Q94N/R106L/R155S/R180L/S101N/S121R/S35A/S48T/T118I/V36M/W191S/Y140D/Y91S). In words: B44 supertype peptide binding, B*4403.
The target of experiment [4] is B*4501 (Homo sapiens, UniProt P01889, A329T/A65T/A93T/A95T/C349S/D138N/D201E/D98Y/E176V/E187L/E204Q/E69K/H137Y/K202T/L119W/N87E/Q56L/Q94N/R155S/R180D/S121R/S35A/S48T/V127L/V306I/V36M/W191S/Y140L/Y33H/Y91S). Put plainly: B44 supertype peptide binding, B*4501.
In experiment [5] the target is B*1801 (Homo sapiens, UniProt P01889, A329T/A93T/A95T/C349S/D201E/D54G/D98Y/E176V/E187T/E204Q/E69T/K202T/Q94N/R155S/R180L/S121R/V306I/Y140S/Y195H/Y33H/Y91S). Put plainly: B44 supertype peptide binding, B*1801. Particulars: HER 2/neu-derived B44 peptides, Table 27.
Experiment [6] concerns the target B*4402 (Homo sapiens, UniProt P01889, A223V/A65T/A93T/A95T/D201E/D98Y/E176V/E187L/E204Q/E69K/G107R/H137Y/K202T/L105A/L119I/N104T/N87E/Q56L/Q94N/R106L/R155S/R180D/S101N/S121R/S35A/S48T/T118I/V36M/W191S/Y140D/Y91S). Put plainly: B44 supertype peptide binding, B*4402.
The mark [7] stands for this setting: CEA-derived B44 peptides, binding affinity, unit inferred, read-out: B* 4001.
Where [8] appears, read: CEA-derived B44 peptides, binding affinity, unit inferred, read-out: B* 4002.
Where [9] appears, read: CEA-derived B44 peptides, binding affinity, unit inferred, read-out: B* 4403.
Where [10] appears, read: HER 2/neu-derived B44 peptides, Table 27, read-out: B* 4001.
The mark [11] stands for this setting: HER 2/neu-derived B44 peptides, Table 27, read-out: B* 4402.
Where [12] appears, read: HER 2/neu-derived B44 peptides, Table 27, read-out: B* 4403.
[13] abbreviates: HER 2/neu-derived B44 peptides, Table 27, read-out: B* 4501.
[14] abbreviates: HER 2/neu-derived B44 peptides, Table 27, read-out: B* 4002.

For the compound `C[C@H](NC(=O)[C@H](CCC(=O)O)NC(=O)[C@@H]1CCCN1C(=O)[C@H](CCC(=O)O)NC(=O)[C@@H](N)CS)C(=O)N[C@@H](CCC(N)=O)C(=O)N[C@@H](CC(N)=O)C(=O)N[C@H](C(=O)N[C@H](C(=O)N[C@@H](Cc1ccc(O)cc1)C(=O)O)[C@@H](C)O)[C@@H](C)O` [compound 413], the pIC50 in experiment [1] (setting [7]), in experiment [2] (setting [8]) and in experiment [3] (setting [9]) was < 5.00 throughout.

With `CC(C)C[C@H](NC(=O)[C@H](Cc1ccc(O)cc1)NC(=O)[C@@H](NC(=O)[C@@H](NC(=O)[C@H](CC(N)=O)NC(=O)[C@H](CCC(N)=O)NC(=O)[C@H](C)NC(=O)[C@H](CCC(=O)O)NC(=O)[C@@H]1CCCN1)[C@@H](C)O)[C@@H](C)O)C(=O)N[C@@H](Cc1c[nH]c2ccccc12)C(=O)O` [compound 415], the pIC50 in experiment [1] (setting [7]) is < 5.00; in experiment [2] (setting [8]), < 5.00; in experiment [3] (setting [9]) it was < 5.00; in experiment [4] (CEA-derived B44 peptides, binding affinity, unit inferred, read-out: B* 4501), < 5.00.

Consider `CC[C@H](C)[C@H](NC(=O)[C@@H]1CCCN1C(=O)[C@@H]1CCCN1C(=O)[C@H](CCC(N)=O)NC(=O)[C@@H]1CCCN1C(=O)[C@H](CC(C)C)NC(=O)[C@H](CCCNC(=N)N)NC(=O)[C@H](CCC(=O)O)NC(=O)CN)C(=O)O` [compound 437], for which the pIC50 is 7.21 in experiment [5]; 7.15 in experiment [1] (setting [10]); 7.57 in experiment [6] (setting [11]); 8.96 in experiment [3] (setting [12]); 7.82 in experiment [4] (setting [13]).

Take `CSCC[C@H](NC(=O)[C@@H](NC(=O)[C@H](Cc1ccc(O)cc1)NC(=O)[C@H](C)NC(=O)[C@H](CCC(=O)O)NC(=O)[C@@H](N)CC(=O)O)C(C)C)C(=O)N[C@@H](C)C(=O)NCC(=O)N[C@H](C(=O)O)C(C)C` [compound 517]: the pIC50 in experiment [2] (setting [14]) was 5.90; in experiment [6] (setting [11]) it was 5.10; in experiment [3] (setting [12]) it was 6.86; in experiment [4] (setting [13]), 6.79.

For the compound `CSCC[C@H](NC(=O)[C@H](CC(C)C)NC(=O)[C@H](CCC(=O)O)NC(=O)[C@@H](N)Cc1c[nH]c2ccccc12)C(=O)N[C@H](C(=O)N[C@@H](Cc1ccccc1)C(=O)NCC(=O)N[C@@H](C)C(=O)N[C@@H](CCCCN)C(=O)N1CCC[C@H]1C(=O)N[C@@H](Cc1ccc(O)cc1)C(=O)O)[C@@H](C)O` [compound 519], the pIC50 in experiment [1] (setting [10]) is 6.29; in experiment [2] (setting [14]) it was 6.11; in experiment [6] (setting [11]) it was 7.62; in experiment [3] (setting [12]) it was 7.12.

Consider `CC[C@H](C)[C@H](NC(=O)[C@@H]1CCCN1C(=O)[C@H](CS)NC(=O)[C@@H]1CCCN1C(=O)[C@H](CCC(N)=O)NC(=O)[C@H](CS)NC(=O)[C@H](C)NC(=O)CNC(=O)[C@H](CCC(=O)O)NC(=O)[C@H](CCC(=O)O)NC(=O)[C@@H](N)CC(=O)O)C(=O)O` [compound 528], for which the pIC50 in experiment [1] was 5.26; in experiment [2], 5.14; in experiment [6] it was 6.01; in experiment [3] it was 6.36; in experiment [4], 5.88.

For the compound `CC(C)C[C@H](NC(=O)[C@@H]1CCCN1C(=O)[C@H](CCC(=O)O)NC(=O)[C@@H](N)C(C)C)C(=O)N[C@H](C(=O)N1CCC[C@H]1C(=O)N[C@@H](CO)C(=O)NCC(=O)N[C@@H](C)C(=O)O)[C@@H](C)O` [compound 530], the pIC50 in experiment [5] was 5.14; in experiment [6] (setting [11]), 5.07; in experiment [3] (setting [12]), 6.72.

For `CC(C)C[C@H](NC(=O)[C@H](CCC(=O)O)NC(=O)[C@@H](NC(=O)[C@H](CCC(=O)O)NC(=O)[C@@H](N)CCCCN)[C@@H](C)O)C(=O)N[C@@H](CCCNC(=N)N)C(=O)N[C@@H](CCCCN)C(=O)N[C@H](C(=O)N[C@@H](CCCCN)C(=O)N[C@H](C(=O)O)C(C)C)C(C)C` [compound 531], the pIC50 in experiment [5] is 4.92; in experiment [6] (setting [11]), 5.53; in experiment [3] (setting [12]), 7.82; in experiment [4] (setting [13]), 5.80.

Take `CSCC[C@H](NC(=O)[C@H](CC(=O)O)NC(=O)[C@H](CC(=O)O)NC(=O)[C@H](CC(=O)O)NC(=O)[C@H](CCC(=O)O)NC(=O)[C@@H](N)CC(C)C)C(=O)NCC(=O)N[C@@H](CC(=O)O)C(=O)N[C@@H](CC(C)C)C(=O)O` [compound 536]: the pIC50 in experiment [5] is 6.72; in experiment [1] (setting [10]), 6.25; in experiment [3] (setting [12]) it was 6.05.

Take `CC(C)C[C@H](NC(=O)[C@H](Cc1ccc(O)cc1)NC(=O)[C@H](CCC(=O)O)NC(=O)[C@H](CCC(=O)O)NC(=O)[C@H](C)N)C(=O)N[C@H](C(=O)N1CCC[C@H]1C(=O)N[C@@H](CCC(N)=O)C(=O)N[C@@H](CCC(N)=O)C(=O)NCC(=O)O)C(C)C` [compound 537]: the values for the pIC50 in experiment [5] and in experiment [3] (setting [12]) were 6.14 and 6.32, respectively.

As for `CC(C)C[C@H](NC(=O)[C@H](Cc1ccc(O)cc1)NC(=O)[C@H](CCC(=O)O)NC(=O)[C@@H]1CCCN1)C(=O)N[C@H](C(=O)N1CCC[C@H]1C(=O)N[C@@H](CCC(N)=O)C(=O)NCC(=O)NCC(=O)N[C@@H](C)C(=O)N[C@@H](C)C(=O)O)[C@@H](C)O` [compound 540], the pIC50 in experiment [2] (setting [14]) was 6.70; in experiment [3] (setting [12]), 6.45; in experiment [4] (setting [13]), 5.40.

As to `CSCC[C@H](NC(=O)[C@H](CC(=O)O)NC(=O)[C@H](CC(C)C)NC(=O)[C@H](Cc1c[nH]cn1)NC(=O)[C@@H](NC(=O)[C@H](CCC(=O)O)NC(=O)[C@@H]1CCCN1)[C@@H](C)O)C(=O)N[C@@H](CC(C)C)C(=O)N[C@@H](CCCNC(=N)N)C(=O)N[C@@H](Cc1c[nH]cn1)C(=O)N[C@@H](CC(C)C)C(=O)O` [compound 543], the pIC50 in experiment [5] is 5.88; in experiment [1] (setting [10]) it was 6.15; in experiment [6] (setting [11]) it was 4.94; in experiment [3] (setting [12]), 7.15; in experiment [4] (setting [13]), 5.36.

In the case of `CC(C)C[C@H](NC(=O)[C@@H](NC(=O)[C@H](CCCNC(=N)N)NC(=O)[C@H](CS)NC(=O)[C@H](CCC(=O)O)NC(=O)[C@H](CCC(=O)O)NC(=O)[C@@H](N)C(C)C)C(C)C)C(=O)N[C@@H](CCC(N)=O)C(=O)NCC(=O)O` [compound 555], the pIC50 in experiment [1] (setting [10]) was 5.05; in experiment [2] (setting [14]), 5.12; in experiment [3] (setting [12]), 6.52.

With `CC(C)C[C@H](NC(=O)CNC(=O)[C@H](CCC(N)=O)NC(=O)[C@H](CC(C)C)NC(=O)[C@@H](NC(=O)[C@H](CCCNC(=N)N)NC(=O)[C@H](CS)NC(=O)[C@H](CCC(=O)O)NC(=O)[C@@H](N)CCC(=O)O)C(C)C)C(=O)O` [compound 556], the pIC50 in experiment [1] (setting [10]) was 5.15; in experiment [2] (setting [14]), 5.69; in experiment [6] (setting [11]) it was 6.14; in experiment [3] (setting [12]) it was 6.36.

Turning to `CC(C)[C@H](NC(=O)[C@H](CO)NC(=O)CNC(=O)[C@H](CC(N)=O)NC(=O)[C@H](CCC(N)=O)NC(=O)[C@@H]1CCCN1C(=O)[C@H](CCC(N)=O)NC(=O)[C@H](CS)NC(=O)[C@H](CCC(=O)O)NC(=O)[C@@H]1CCCN1)C(=O)O` [compound 557], the pIC50 was 5.10 in experiment [5] and 6.33 in experiment [3] (setting [12]).

Turning to `CC(C)C[C@H](NC(=O)[C@H](CCC(=O)O)NC(=O)[C@@H](N)[C@@H](C)O)C(=O)N[C@H](C(=O)N[C@@H](CCC(=O)O)C(=O)N1CCC[C@H]1C(=O)N[C@@H](CC(C)C)C(=O)N[C@H](C(=O)N1CCC[C@H]1C(=O)N[C@@H](CO)C(=O)NCC(=O)O)[C@@H](C)O)C(C)C` [compound 558], the pIC50 was 6.22 in experiment [5], 5.53 in experiment [1] (setting [10]), 6.57 in experiment [3] (setting [12]) and 4.85 in experiment [4] (setting [13]).

For `C[C@H](NC(=O)[C@H](CCC(=O)O)NC(=O)[C@H](CC(=O)O)NC(=O)[C@@H]1CCCN1C(=O)CNC(=O)[C@@H]1CCCN1C(=O)[C@H](CC(=O)O)NC(=O)[C@H](CCC(=O)O)NC(=O)[C@@H](N)[C@@H](C)O)C(=O)O` [compound 639], the pIC50 is 5.91 in experiment [1] (Table 28: p53-derived B44 peptides, read-out: B* 4001); < 5.00 in experiment [2] (Table 28: p53-derived B44 peptides, read-out: B* 4002); 5.10 in experiment [6] (Table 28: p53-derived B44 peptides, read-out: B* 4402); 5.56 in experiment [3] (Table 28: p53-derived B44 peptides, read-out: B* 4403); 5.75 in experiment [4].
